# Experimental data published in patent US20200032163A1, “Method for the Virus Inactivation of a Preparation of Monoclonal Antibodies” (Laboratoire Francais du Fractionnement et des …, priority 2016, published 2020).
# Assay: Adsorption of polysorbate 80 and TnBP by the multilayer film of the 75 mL flexible bag (HPLC)
# [1] = Bag according to the invention, 30 min, 25±3° C.
# [2] = Bag according to the invention, 1 hour, 25±3° C.
# [3] = Bag according to the invention, 2 hours, 25±3° C.
compound,measurement,setting,value
CCCCOP(=O)(OCCCC)OCCCC,adsorption by the bag,"75 mL flexible bag, 2 hours, 25±3° C.",no significant adsorption
same,TnBP Concentration,"Bag according to the invention, 0 min, 25±3° C.",3308 mg/L
same,TnBP Adsorption with respect to T0,[1],−3.5%
same,TnBP Concentration,[1],3425 mg/L
same,TnBP Adsorption with respect to T0,[2],5.6%
same,TnBP Concentration,[2],3493 mg/L
same,TnBP Adsorption with respect to T0,[3],0.8%
same,TnBP Concentration,[3],3333 mg/L
same,TnBP Concentration,"Glass flask (negative control), 30 min",3042 mg/L
